Results reported in patent US9884839B2, “Inhibitors of 17Beta-hydroxysteroid dehydrogenases type 1 and type 2” (ElexoPharm GmbH, priority 2014, dated 2018).

Target: T1, human 17β-HSD1 (Homo sapiens, UniProt P14061)
T1 construct: For the partial purification of 17β-HSD1, the cytosolic fraction was precipitated with ammonium sulfate; from tissue; host or cells: human placenta, cytosolic fraction, ammonium sulfate precipitate
T1 sequence (P14061 1-328): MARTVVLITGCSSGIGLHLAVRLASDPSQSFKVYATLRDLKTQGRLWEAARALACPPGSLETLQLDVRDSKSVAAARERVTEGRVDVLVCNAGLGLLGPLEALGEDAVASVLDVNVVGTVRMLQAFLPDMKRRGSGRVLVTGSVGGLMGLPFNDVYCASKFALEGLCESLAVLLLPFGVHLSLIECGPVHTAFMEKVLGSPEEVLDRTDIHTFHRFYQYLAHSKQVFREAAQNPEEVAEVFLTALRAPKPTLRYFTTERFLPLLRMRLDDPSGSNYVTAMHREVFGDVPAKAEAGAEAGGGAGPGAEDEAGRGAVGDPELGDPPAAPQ
Test: Inhibition of human 17β-HSD1 (conversion of [3H]-E1 to E2, HPLC radioflow detection)
Type: biochemical
Details: human placental cytosolic enzyme, E1 500 nM, NADH; Tables 1, 4-11; read-out: IC50 [nM] h17β-HSD1

- IC50: 10 nM
SMILES: Nc1cccc(-c2ccc(C(=O)c3c(F)ccc(O)c3F)s2)c1 [Compound 1, [5-(3-Aminophenyl)thiophen-2-yl](2,6-difluoro-3-hydroxyphenyl)methanone]
